# Source: patent US20240360179A1, “STAPLED PEPTIDES AND METHODS THEREOF” (FOG PHARMACEUTICALS, INC., priority 2021, published 2024)
# Sequences of proteins named here, by UniProt entry; tags and fusion partners are left off.
# UniProt P35222, whole entry: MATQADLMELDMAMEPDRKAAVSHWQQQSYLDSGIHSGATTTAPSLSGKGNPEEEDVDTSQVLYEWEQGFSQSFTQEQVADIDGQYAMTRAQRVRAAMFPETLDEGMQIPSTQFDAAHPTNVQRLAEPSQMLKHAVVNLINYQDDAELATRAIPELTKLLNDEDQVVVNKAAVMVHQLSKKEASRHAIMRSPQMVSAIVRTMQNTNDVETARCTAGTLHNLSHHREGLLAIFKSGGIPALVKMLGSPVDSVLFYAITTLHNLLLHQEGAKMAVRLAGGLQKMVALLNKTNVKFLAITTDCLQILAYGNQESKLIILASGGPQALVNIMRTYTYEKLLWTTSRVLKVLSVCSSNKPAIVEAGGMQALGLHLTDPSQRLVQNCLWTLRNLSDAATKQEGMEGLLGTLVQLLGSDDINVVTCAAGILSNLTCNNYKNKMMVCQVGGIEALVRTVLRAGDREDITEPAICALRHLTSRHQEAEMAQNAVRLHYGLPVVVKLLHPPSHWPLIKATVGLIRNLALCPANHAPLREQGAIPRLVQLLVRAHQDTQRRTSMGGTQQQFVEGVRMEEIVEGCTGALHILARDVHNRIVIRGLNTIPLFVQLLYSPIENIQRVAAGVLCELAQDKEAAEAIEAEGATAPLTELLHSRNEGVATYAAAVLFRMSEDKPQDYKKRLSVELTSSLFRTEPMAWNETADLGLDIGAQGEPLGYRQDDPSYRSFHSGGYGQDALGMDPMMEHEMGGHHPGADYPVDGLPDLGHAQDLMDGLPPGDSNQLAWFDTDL
# Target: T1, full-length B-Catenin (Uniprot ID P35222) (Homo sapiens, UniProt P35222)
# T1 construct: 10 nM full-length B-Catenin (Uniprot ID P35222)
# Type: binding
# Details: competition fluorescence polarization; read-out: beta-Catenin FP IC50
row,Substance,IC50
1,Ac-PL3-Npg-Npg-B5-Asp-3COOHF-Aib-Ala-Phe-Lys*3-PyrS2-3Thi-BztA-GlnR*3-Ala-NH2 [I-1153],> 1000 nM
2,Ac-PL3-Phe-Npg-B5-Asp-3COOHF-Aib-Ala-Phe-Lys*3-PyrS2-3Thi-BztA-GlnR*3-Ala-NH2 [I-928],> 1000 nM
3,Ac-PL3-RbGlu-Npg-B5-Asp-3COOHF-Aib-Ala-Phe-Lys*3-PyrS2-3Thi-BztA-GlnR*3-Ala-NH2 [I-965],200 to 750 nM
4,Ac-PL3-SbGlu-Npg-B5-Asp-3COOHF-Aib-Ala-Phe-Lys*3-PyrS2-3Thi-BztA-GlnR*3-Ala-NH2 [I-962],> 1000 nM
5,Ac-PL3-Ser-DipA-B5-Asp-3COOHF-nLeu-Ala-Phe-Lys*3-PyrS2-3Thi-BztA-GlnR*3-NH2 [I-1681],< 50 nM
6,Ac-PL3-Thr-DipA-B5-Asp-3COOHF-nLeu-Ala-Phe-Lys*3-PyrS2-3Thi-BztA-GlnR*3-NH2 [I-1682],200 to 750 nM
7,Ac-PL3-aThr-DipA-B5-Asp-3COOHF-CyLeu-Ala-Phe-Lys*3-PyrS2-3Thi-34ClF-GlnR*3-NH2 [I-1631],50 to 200 nM
8,Ac-PL3-aThr-DipA-B5-Asp-3COOHF-nLeu-Ala-3Thi-Lys*3-PyrS2-3Thi-BztA-GlnR*3-NH2 [I-1687],200 to 750 nM
9,Ac-PL3-aThr-DipA-B5-Asp-3COOHF-nLeu-Ala-Phe-Lys*3-PyrS2-3Thi-34ClF-GlnR*3-NH2 [I-1637],50 to 200 nM
10,Ac-PL3-isoDAsp-Npg-B5-Asp-3COOHF-Aib-Ala-Phe-Lys*3-PyrS2-3Thi-BztA-GlnR*3-Ala-NH2 [I-963],50 to 200 nM
11,Ac-PL3-isoDGlu-Npg-B5-Asp-3COOHF-Aib-Ala-Phe-Lys*3-PyrS2-3Thi-BztA-GlnR*3-Ala-NH2 [I-960],> 1000 nM
12,Ac-PL3-isoGlu-Npg-B5-Asp-3COOHF-Aib-Ala-Phe-Lys*3-PyrS2-3Thi-BztA-GlnR*3-Ala-NH2 [I-958],> 1000 nM
13,Ac-Pro-Ala-S5-Ala-Asp-Npg-B5-Asp-3COOHF-Aib-Ala-Phe-Lys*3-PyrS2-3Thi-BztA-GlnR*3-Ala [I-1286],50 to 200 nM
14,Ac-Pro-Ala-S5-Ser-Asp-Npg-B5-Asp-3COOHF-Aib-Ala-Phe-Lys*3-PyrS2-3Thi-BztA-GlnR*3-Ala [I-1289],50 to 200 nM
15,Ac-Pro-S5-Ala-Asp-DipA-B5-Asp-3COOHF-Aib-Ala-Phe-Lys*3-PyrS1-Phe-34ClF-GlnR*3-NH2 [I-1888],< 50 nM
16,Ac-Pro-S5-Ala-Asp-Leu-B5-Asp-3COOHF-Aib-Ala-Phe-Lys*3-PyrS1-Phe-34ClF-GlnR*3-NH2 [I-1883],< 50 nM
17,Ac-Pro-S5-Ala-Asp-Val-B5-Asp-3COOHF-Aib-Ala-Phe-Lys*3-PyrS1-Phe-34ClF-GlnR*3-NH2 [I-1889],< 50 nM
18,Ac-Pro-S5-Glu-Asp-DipA-B5-Asp-3COOHF-Aib-Ala-Phe-Lys*3-PyrS1-Phe-34ClF-GlnR*3-NH2 [I-1885],< 50 nM
19,Ac-Pro-S5-Glu-Asp-Leu-B5-Asp-3COOHF-Aib-Ala-Phe-Lys*3-PyrS1-Phe-34ClF-GlnR*3-NH2 [I-1887],< 50 nM
20,Ac-Pro-S5-Glu-Asp-Val-B5-Asp-3COOHF-Aib-Ala-Phe-Lys*3-PyrS1-Phe-34ClF-GlnR*3-NH2 [I-1886],< 50 nM
21,Ac-Pro-S5-Leu-Asp-DipA-B5-Asp-3COOHF-Aib-Ala-Phe-Lys*3-PyrS1-Phe-34ClF-GlnR*3-NH2 [I-1893],< 50 nM
22,Ac-Pro-S5-Leu-Asp-Leu-B5-Asp-3COOHF-Aib-Ala-Phe-Lys*3-PyrS1-Phe-34ClF-GlnR*3-NH2 [I-1895],< 50 nM

row,Substance,IC50
1,Ac-Pro-S5-Leu-Asp-Val-B5-Asp-3COOHF-Aib-Ala-Phe-Lys*3-PyrS1-Phe-34ClF-GlnR*3-NH2 [I-1894],< 50 nM
2,Ac-Pro-S5-Val-Asp-Leu-B5-Asp-3COOHF-Aib-Ala-Phe-Lys*3-PyrS1-Phe-34ClF-GlnR*3-NH2 [I-1892],< 50 nM
3,Ac-Pro-S5-Val-Asp-Val-B5-Asp-3COOHF-Aib-Ala-Phe-Lys*3-PyrS1-Phe-34ClF-GlnR*3-NH2 [I-1891],< 50 nM
4,Ac-Pro-S6-Leu-Asp-Chg-B5-Asp-3COOHF-Aib-Ala-Phe-Lys*3-PyrS1-3Thi-BztA-GlnR*3-NH2 [I-1941],< 50 nM
5,Ac-Pro-S6-Leu-Asp-Val-B5-Asp-3COOHF-Aib-Ala-Phe-Lys*3-PyrS1-3Thi-BztA-GlnR*3-NH2 [I-1940],< 50 nM
6,Ac-Pro-Ser-S5-Ala-Asp-Npg-B5-Asp-3COOHF-Aib-Ala-Phe-Lys*3-PyrS2-3Thi-BztA-GlnR*3-Ala [I-1295],50 to 200 nM
7,Ac-S5-3COOHF-Asp-DipA-B5-Asp-3COOHF-Aib-Ala-Phe-Lys*3-PyrS1-3Thi-BztA-GlnR*3-NH2 [I-1875],< 50 nM
8,Ac-S5-Ala-Asn-Npg-B5-Asp-3COOHF-Aib-Ala-Phe-Lys*3-PyrS2-3Thi-BztA-GlnR*3-Ala-NH2 [I-1193],200 to 750 nM
9,Ac-S5-Ala-Asn-Npg-B5-Asp-3COOHF-Aib-Ala-Phe-Lys*3-PyrS2-3Thi-BztA-GlnR*3-Ala-NH2 [I-1194],50 to 200 nM
10,Ac-S5-Ala-Asn-Npg-B5-Asp-3COOHF-Aib-Ala-Phe-Lys*3-PyrS2-3Thi-BztA-GlnR*3-Ala-NH2 [I-1218],50 to 200 nM
11,Ac-S5-Ala-Asp-Ala-B5-Asp-3COOHF-Aib-Ala-Phe-Lys*3-PyrS2-Phe-34ClF-GlnR*3-Ala-NH2 [I-1235],< 50 nM
12,Ac-S5-Ala-Asp-Ala-B5-Asp-3COOHF-Aib-Ala-Phe-Lys*3-PyrS2-Phe-34ClF-GlnR*3-NH2 [I-1236],< 50 nM
13,Ac-S5-Ala-Asp-Cha-B5-Asp-3COOHF-Aib-Ala-Phe-Lys*3-PyrS1-Phe-34ClF-GlnR*3-NH2 [I-1626],< 50 nM
14,Ac-S5-Ala-Asp-Cha-B5-Asp-3COOHF-Aib-Ala-Phe-Lys*3-PyrS2-Phe-34ClF-GlnR*3-NH2 [I-1616],< 50 nM
15,Ac-S5-Ala-Asp-Chg-B5-Asp-3COOHF-Aib-Ala-Phe-Lys*3-PyrS1-Phe-34ClF-GlnR*3-NH2 [I-1627],< 50 nM
16,Ac-S5-Ala-Asp-Chg-B5-Asp-3COOHF-Aib-Ala-Phe-Lys*3-PyrS2-Phe-34ClF-GlnR*3-NH2 [I-1620],< 50 nM
17,Ac-S5-Ala-Asp-DipA-B5-Asp-3COOHF-Aib-Ala-Phe-Lys*3-PyrS1-3Thi-BztA-GlnR*3-NH2 [I-1876],< 50 nM
18,Ac-S5-Ala-Asp-DipA-B5-Asp-3COOHF-nLeu-Ala-Phe-Lys*3-PyrS2-Phe-34ClF-GlnR*3-NH2 [I-1688],< 50 nM
19,Ac-S5-Ala-Asp-Ile-B5-Asp-2COOHF-Aib-Ala-Phe-Lys*3-PyrS2-Phe-34ClF-GlnR*3-NH2 [I-1335],< 50 nM
20,Ac-S5-Ala-Asp-Ile-B5-Asp-3COOHF-Aib-Ala-Phe-Lys*3-PyrS2-Phe-34ClF-GlnR*3-Ala-NH2 [I-1233],< 50 nM
21,Ac-S5-Ala-Asp-Ile-B5-Asp-3COOHF-Aib-Ala-Phe-Lys*3-PyrS2-Phe-34ClF-GlnR*3-NH2 [I-1234],< 50 nM
22,Ac-S5-Ala-Asp-Ile-B5-Asp-3COOHF-Ala-Ala-Phe-Lys*3-PyrS2-Phe-34ClF-GlnR*3-Ala-NH2 [I-1239],< 50 nM

row,Substance,IC50
1,Ac-S5-Ala-Asp-Ile-B5-Asp-3COOHF-Ala-Ala-Phe-Lys*3-PyrS2-Phe-34ClF-GlnR*3-NH2 [I-1240],50 to 200 nM
2,Ac-S5-Ala-Asp-Ile-B5-Asp-4COOHF-Aib-Ala-Phe-Lys*3-PyrS2-Phe-34ClF-GlnR*3-NH2 [I-1336],50 to 200 nM
3,Ac-S5-Ala-Asp-Ile-B5-Asp-Asn-Aib-Ala-Phe-Lys*3-PyrS2-Phe-34ClF-GlnR*3-NH2 [I-1339],> 1000 nM
4,Ac-S5-Ala-Asp-Ile-B5-Asp-Asp-Aib-Ala-Phe-Lys*3-PyrS2-Phe-34ClF-GlnR*3-NH2 [I-1337],< 50 nM
5,Ac-S5-Ala-Asp-Ile-B5-Asp-Gln-Aib-Ala-Phe-Lys*3-PyrS2-Phe-34ClF-GlnR*3-NH2 [I-1340],200 to 750 nM
6,Ac-S5-Ala-Asp-Ile-B5-Asp-Glu-Aib-Ala-Phe-Lys*3-PyrS2-Phe-34ClF-GlnR*3-NH2 [I-1338],200 to 750 nM
7,Ac-S5-Ala-Asp-Ile-B5-Asp-Ser-Aib-Ala-Phe-Lys*3-PyrS2-Phe-34ClF-GlnR*3-NH2 [I-1341],200 to 750 nM
8,Ac-S5-Ala-Asp-Npg-B5-Ala-Asp-3COOHF-Aib-Ala-Phe-[4Abu]DapAc7-Leu-3Thi-BztA-GlnR*3-Ala-NH2 [I-1297],> 1000 nM
9,Ac-S5-Ala-Asp-Npg-B5-Asn-3COOHF-Aib-Ala-Phe-Lys*3-PyrS2-3Thi-BztA-GlnR*3-Ala-NH2 [I-1201],200 to 750 nM
10,Ac-S5-Ala-Asp-Npg-B5-Asp-3COOHF-Aib-Ala-Phe-Lys*3-PyrS2-Phe-34ClF-GlnR*3-Ala-NH2 [I-1229],< 50 nM
11,Ac-S5-Ala-Asp-Npg-B5-Asp-Asp-Aib-Ala-Phe-Lys*3-PyrS2-3Thi-BztA-GlnR*3-Ala-NH2 [I-1329],< 50 nM
12,Ac-S5-Ala-Asp-Npg-B5-Glu-3COOHF-Aib-Ala-Phe-Lys*3-PyrS2-3Thi-BztA-GlnR*3-Ala-NH2 [I-1199],50 to 200 nM
13,Ac-S5-Ala-Asp-Npg-B5-Glu-3COOHF-Aib-Ala-Phe-Lys*3-PyrS2-3Thi-BztA-GlnR*3-Ala-NH2 [I-1200],200 to 750 nM
14,Ac-S5-Ala-Asp-Npg-B5-Glu-Asp-Aib-Ala-Phe-Lys*3-PyrS2-3Thi-BztA-GlnR*3-Ala-NH2 [I-1330],200 to 750 nM
15,Ac-S5-Ala-Asp-Npg-B5-Hse-3COOHF-Aib-Ala-Phe-Lys*3-PyrS2-3Thi-BztA-GlnR*3-Ala-NH2 [I-1205],> 1000 nM
16,Ac-S5-Ala-Asp-Npg-B5-Ser-3COOHF-Aib-Ala-Phe-Lys*3-PyrS2-3Thi-BztA-GlnR*3-Ala-NH2 [I-1203],200 to 750 nM
17,Ac-S5-Ala-Asp-Npg-B5-Ser-3COOHF-Aib-Ala-Phe-Lys*3-PyrS2-3Thi-BztA-GlnR*3-Ala-NH2 [I-1204],> 1000 nM
18,Ac-S5-Ala-Asp-Npg-B5-Ser-3COOHF-Aib-Ala-Phe-Lys*3-PyrS2-3Thi-BztA-GlnR*3-Ala-NH2 [I-1223],> 1000 nM
19,Ac-S5-Ala-Asp-Npg-B5-TfeGA-Asp-Aib-Ala-Phe-Lys*3-PyrS2-3Thi-BztA-GlnR*3-Ala-NH2 [I-1331],> 1000 nM
20,Ac-S5-Ala-Asp-Phe-B5-Asp-3COOHF-Aib-Ala-Phe-Lys*3-PyrS2-Phe-34ClF-GlnR*3-Ala-NH2 [I-1237],< 50 nM
21,Ac-S5-Ala-Asp-Phe-B5-Asp-3COOHF-Aib-Ala-Phe-Lys*3-PyrS2-Phe-34ClF-GlnR*3-NH2 [I-1238],< 50 nM
